This is an account of results in patent US20100199363A1, “ENZYMES FOR DEGRADING HERBICIDES” (priority 2006, published 2010).

This data set is described as follows: Glyphosate degradation by GloxA-like homologous proteins, soluble cell-free extracts. In kind it is biochemical. The source says: The GloxA nucleotide and amino acid sequences were compared to the non-redundant nucleotide and protein NCBI databases using BLASTN and BLASTP (Altschul et al., 1997), respectively. Selected putative GloxA-like homologous proteins were then expressed and assayed for glyphosate degradative activity. The nucleotide coding sequences of selected putative homologues were commercially synthesised (Geneart, GmBH), cloned and expressed using the Champion pET200D/TOPO. Expression System (Invitrogen), according to manufacturer's instructions. Recombinant protein expression was verified and quantitated by Coomasie-stained SDS-PAGE analysis and spot-densitometry using AlphaImager 2200 visualization and documentation system (Alpha Innotech).
Enzymatic assays to assess glyphsate degradation were, performed using soluble cell-free protein extracts (partially purified protein) in a 1 ml volume containing 100 μg total cell-free protein (˜10 μg enzyme extract), 1 mM MgCl2, 1 mM glycine in 20 mM Tris-Cl pH 7.2. Negative controls included cell-free extracts from E. coli BL21 Star both containing no expression vector and containing pET200D/TOPO without an insert.

B1: GOBL: putative glycine oxidase from Brevibacterium linens BL2, ZP_00381186, SEQ ID NO:8 (protein)
chain: MDVTAALADASTVPFWLDSDQRPEPLPPLTRDLEADLVIVGGGFTGLWTALQAKERDPGRHVVLVEANSIGWAASGRNGGFCAASLTHGYENGESHLPAENERLAQLGLDNLNEIEAAVTRYGMDVEFERTGELDVATEDYQVPELREAHDPEAGFIFYDQQELAQIVKSPTYKGALWDSREVAMVNPAKLCWELLRVIRELGVEVFEGTKVTDVSDRKTNVQITTLVTSQALEDCASAPCSIITAKRVALATNVFPSLLKRVSLHTVPVYDYALMTEPLSDEQLTSIGWDGRQGIGDCASRFHYYRLSADNRILFGGWDAVYHYGRQVSWKYDQRAETFETLAAHFYETFPQLQGVKFTHKWGGPIDTCSRFFSFFTTAYGKKVAMAAGFTGLGVGASRFAGTVMLDLLSGQDTELTQLEMVRKLPLPFPPEPVAWLGIQMTTNALIKADGNEGRRGPLLKALDAVGMGFDS
modifications: Brevibacterium linens BL2
Turning to B1, the “Partially Purified Activity [glyphosate degradation]” value came out at 480 µmol/min/mg.
